Source: patent publication US11839619B2, “Methods for treatment of pediatric systemic mastocytosis” (The Regents of the University of California, priority 2019, dated 2023)

System: indolent SM with KIT p.D816V pathogenic variant
Assay: Treatment of an infant patient with indolent systemic mastocytosis (compassionate use case)
Details: infant patient on midostaurin

CO[C@@H]1[C@H](N(C)C(=O)c2ccccc2)C[C@H]2O[C@]1(C)n1c3ccccc3c3c4c(c5c6ccccc6n2c5c31)C(=O)NC4 [midostaurin]
tolerability: tolerating midostaurin well
